Here are results for two compounds from ChEMBL document CHEMBL2021814, “Fragment-based and structure-guided discovery and optimization of Rho kinase inhibitors” (J Med Chem, 2012).

Chains of the proteins cited; added tags and fusions are not shown. Lines headed by an entry give the natural chain unless they say otherwise; changes in a name come on top.
UniProt Q13464: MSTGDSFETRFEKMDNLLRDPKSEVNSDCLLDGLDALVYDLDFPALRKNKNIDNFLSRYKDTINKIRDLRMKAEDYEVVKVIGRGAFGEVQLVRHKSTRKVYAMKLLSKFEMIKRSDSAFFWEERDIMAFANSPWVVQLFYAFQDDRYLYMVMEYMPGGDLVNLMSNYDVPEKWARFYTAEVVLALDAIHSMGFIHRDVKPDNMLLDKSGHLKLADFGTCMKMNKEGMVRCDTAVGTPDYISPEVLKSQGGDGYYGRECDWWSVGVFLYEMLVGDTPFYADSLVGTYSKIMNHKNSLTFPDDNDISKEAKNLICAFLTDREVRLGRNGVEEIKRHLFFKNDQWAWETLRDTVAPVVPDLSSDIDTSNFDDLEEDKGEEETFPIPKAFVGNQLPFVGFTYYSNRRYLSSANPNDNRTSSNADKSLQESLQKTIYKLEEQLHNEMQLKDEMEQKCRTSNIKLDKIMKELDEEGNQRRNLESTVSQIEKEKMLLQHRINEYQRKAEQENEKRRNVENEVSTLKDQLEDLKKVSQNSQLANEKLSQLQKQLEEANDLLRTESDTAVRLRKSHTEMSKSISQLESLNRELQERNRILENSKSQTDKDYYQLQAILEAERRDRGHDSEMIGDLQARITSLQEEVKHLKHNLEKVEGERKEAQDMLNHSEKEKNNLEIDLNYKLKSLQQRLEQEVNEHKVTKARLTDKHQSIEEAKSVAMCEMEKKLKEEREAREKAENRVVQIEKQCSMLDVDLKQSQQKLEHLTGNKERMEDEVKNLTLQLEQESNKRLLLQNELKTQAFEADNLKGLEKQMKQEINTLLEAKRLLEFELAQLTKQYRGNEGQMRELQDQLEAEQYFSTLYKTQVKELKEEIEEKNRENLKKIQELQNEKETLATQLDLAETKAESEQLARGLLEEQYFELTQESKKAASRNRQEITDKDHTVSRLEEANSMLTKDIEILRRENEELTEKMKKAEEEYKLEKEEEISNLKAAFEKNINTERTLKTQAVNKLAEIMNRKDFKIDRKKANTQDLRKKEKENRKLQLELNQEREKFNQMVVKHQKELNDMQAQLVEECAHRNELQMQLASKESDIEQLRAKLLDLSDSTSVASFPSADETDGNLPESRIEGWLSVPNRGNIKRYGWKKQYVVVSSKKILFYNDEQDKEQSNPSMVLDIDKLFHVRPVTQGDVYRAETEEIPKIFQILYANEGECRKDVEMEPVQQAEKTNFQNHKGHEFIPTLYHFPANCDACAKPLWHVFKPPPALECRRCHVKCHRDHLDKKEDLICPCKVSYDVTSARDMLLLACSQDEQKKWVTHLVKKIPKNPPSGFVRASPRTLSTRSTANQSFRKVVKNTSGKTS
UniProt O75116: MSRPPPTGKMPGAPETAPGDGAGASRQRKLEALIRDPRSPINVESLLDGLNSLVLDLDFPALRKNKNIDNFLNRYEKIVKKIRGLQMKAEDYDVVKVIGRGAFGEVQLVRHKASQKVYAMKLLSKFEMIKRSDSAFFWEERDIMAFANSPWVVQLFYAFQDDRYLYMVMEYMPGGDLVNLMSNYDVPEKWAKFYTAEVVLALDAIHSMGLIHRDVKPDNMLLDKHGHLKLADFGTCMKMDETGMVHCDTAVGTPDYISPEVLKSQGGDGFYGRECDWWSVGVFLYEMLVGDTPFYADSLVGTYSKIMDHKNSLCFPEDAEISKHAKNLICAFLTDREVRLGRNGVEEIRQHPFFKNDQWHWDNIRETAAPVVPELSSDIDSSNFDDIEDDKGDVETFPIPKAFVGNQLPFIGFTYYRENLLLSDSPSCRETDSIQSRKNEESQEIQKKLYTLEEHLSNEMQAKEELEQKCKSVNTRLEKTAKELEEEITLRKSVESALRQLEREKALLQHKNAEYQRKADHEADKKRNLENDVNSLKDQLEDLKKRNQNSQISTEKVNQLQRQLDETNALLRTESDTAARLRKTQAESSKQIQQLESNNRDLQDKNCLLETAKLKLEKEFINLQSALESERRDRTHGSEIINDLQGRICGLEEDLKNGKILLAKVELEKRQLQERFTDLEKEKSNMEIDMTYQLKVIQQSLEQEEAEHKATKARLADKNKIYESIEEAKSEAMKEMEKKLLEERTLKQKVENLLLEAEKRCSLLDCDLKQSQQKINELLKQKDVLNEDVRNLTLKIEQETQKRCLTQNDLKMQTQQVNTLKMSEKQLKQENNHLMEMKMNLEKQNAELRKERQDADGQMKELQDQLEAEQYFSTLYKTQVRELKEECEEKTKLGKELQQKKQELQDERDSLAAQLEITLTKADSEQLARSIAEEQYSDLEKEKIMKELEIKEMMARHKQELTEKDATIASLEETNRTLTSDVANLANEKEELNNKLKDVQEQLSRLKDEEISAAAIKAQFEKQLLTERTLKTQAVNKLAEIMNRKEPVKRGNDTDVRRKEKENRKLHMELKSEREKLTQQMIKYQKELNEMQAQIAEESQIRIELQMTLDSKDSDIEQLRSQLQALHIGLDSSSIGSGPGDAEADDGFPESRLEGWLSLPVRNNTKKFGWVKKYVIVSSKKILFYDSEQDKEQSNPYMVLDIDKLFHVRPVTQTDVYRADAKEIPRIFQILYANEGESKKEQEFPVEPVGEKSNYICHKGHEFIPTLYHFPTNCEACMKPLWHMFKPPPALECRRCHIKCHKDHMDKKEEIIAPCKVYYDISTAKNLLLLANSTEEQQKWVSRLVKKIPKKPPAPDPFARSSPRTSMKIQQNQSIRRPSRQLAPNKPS

Broadly, the inhibition is the share of the control response that was lost under treatment. Lower therefore signals little suppression.

For test [1], the target named is Rho-associated protein kinase 1 (Homo sapiens, UniProt Q13464). To be noted: Sf9, 400 uM.
Test [2] concerns the target Rho-associated protein kinase 2 (Homo sapiens, UniProt O75116). To be noted: 400 uM.

Structures are written as SMILES.

On to `O=C(Nc1ccncc1)c1ccncc1`, for which the inhibition in test [1] was 44%; in test [2] it was 42%.
On to `O=C(Nc1ccncc1)c1ccccn1`, for which the inhibition in test [1] and in test [2] was 35% each time.
